Earlier results as cited in patent US20160271257A1, “Low Molecular Weight Immune-Modulators As Adjuvants for Specific Immunotherapy” (PLS-DESIGN GMBH, priority 2013, published 2016).

Biological target: T1, C5aR (Homo sapiens, UniProt P21730)
T1 construct: endogenous in cells; host or cells: human subjects (cited from Kohl, 2006)
T1 sequence (P21730 1-350): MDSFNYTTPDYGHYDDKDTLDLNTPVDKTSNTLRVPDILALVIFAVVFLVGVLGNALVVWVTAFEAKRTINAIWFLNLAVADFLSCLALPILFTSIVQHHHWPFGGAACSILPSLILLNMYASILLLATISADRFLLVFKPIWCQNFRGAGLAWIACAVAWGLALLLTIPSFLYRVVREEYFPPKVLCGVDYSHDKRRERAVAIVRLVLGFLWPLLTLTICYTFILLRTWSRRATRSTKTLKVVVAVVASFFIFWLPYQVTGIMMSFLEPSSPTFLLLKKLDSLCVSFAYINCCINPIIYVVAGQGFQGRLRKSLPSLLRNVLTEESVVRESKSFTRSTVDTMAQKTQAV
Conditions: Phase 1

Question: Which safety and tolerability does the source give for Ac-Phe-[Orn-Pro-DCha-Trp-Arg] [PMX53] here?
Answer: safe and well tolerated
